For this data set, the species on record is Rattus norvegicus. As to the kind of experiment: DrugMatrix - Regimen: Daily Repeat. In kind it is toxicity, organism-based, Sprague-Dawley. Set-up: regimen Daily Repeat, gender Male, age 6-8 weeks. The note with it: in vivo.
The mark [1] stands for this setting: po, 0 mg/kg, 72 h, tissue Plasma, route oral GAVAGE, dose level Control, time 3 day, vehicle 100 % WATER.
The mark [2] stands for this setting: po, 0 mg/kg, 120 h, tissue Plasma, route oral GAVAGE, dose level Control, time 5 day, vehicle 100 % WATER.
The mark [3] stands for this setting: po, […], 120 h, tissue Plasma, route oral GAVAGE, dose 7.5 mg/Kg, dose level Low, time 5 day, vehicle 100 % WATER.
Setting [4] is: ip, 0 mg/kg, […], tissue Plasma, route intraperitoneal, dose level Control, time 14 day, vehicle 100 % SALINE.
[5] abbreviates: ip, 0 mg/kg, […], tissue Plasma, route intraperitoneal, dose level Control, time 28 day, vehicle 100 % SALINE.

From ChEMBL document CHEMBL3885881, “DrugMatrix” come the findings set out here.

Under “po, […], 72 h, tissue Blood, route oral GAVAGE, dose 2.3 mg/Kg, dose level Low, time 3 day, vehicle 100 % WATER”, `CN1[C@@H]2CC[C@H]1C[C@@H](OC(=O)C(CO)c1ccccc1)C2` (stereo not given in full) [ATROPINE] returned an MONOCYTE of 1.33%.

Take `NC(=O)N1c2ccccc2C=Cc2ccccc21` [CARBAMAZEPINE]: the ALBUMIN turned out to be 4.47 G/DL (po, 30 mg/kg, 72 h, tissue Plasma, route oral GAVAGE, dose level Low, time 3 day, vehicle .5 % CMC); 4.27 G/DL (po, 30 mg/kg, 120 h, tissue Plasma, route oral GAVAGE, dose level Low, time 5 day, vehicle .5 % CMC); 4.27 G/DL (po, 490 mg/kg, 72 h, tissue Plasma, route oral GAVAGE, dose level High, time 3 day, vehicle .5 % CMC); 4.37 G/DL (po, 490 mg/kg, 120 h, tissue Plasma, route oral GAVAGE, dose level High, time 5 day, vehicle .5 % CMC).

As to `CNC1=Nc2ccc(Cl)cc2C(c2ccccc2)=[N+]([O-])C1` [CHLORDIAZEPOXIDE], the ALBUMIN was determined as 4.18 G/DL under setting [1]; 4.28 G/DL under setting [2]; 4.27 G/DL (po, […], 72 h, tissue Plasma, route oral GAVAGE, dose 7.5 mg/Kg, dose level Low, time 3 day, vehicle 100 % WATER); 4.23 G/DL under setting [3]. Also, the “ALANINE AMINOTRANSFERASE” value under setting [3] was 41.33 u/L.

As for `CN(C)CCCN1c2ccccc2Sc2ccc(Cl)cc21` [CHLORPROMAZINE], the ALBUMIN is, setting by setting: under setting [1], 4.23 G/DL; under setting [2], 3.97 G/DL; (po, 18 mg/kg, 72 h, tissue Plasma, route oral GAVAGE, dose level Low, time 3 day, vehicle 100 % WATER) 4.2 G/DL; (po, 18 mg/kg, 120 h, tissue Plasma, route oral GAVAGE, dose level Low, time 5 day, vehicle 100 % WATER) 4.27 G/DL; (po, 73 mg/kg, 72 h, tissue Plasma, route oral GAVAGE, dose level High, time 3 day, vehicle 100 % WATER) 4.23 G/DL; (po, 73 mg/kg, 120 h, tissue Plasma, route oral GAVAGE, dose level High, time 5 day, vehicle 100 % WATER) 4.17 G/DL.

Consider `CCN(CC)CCOc1ccc(/C(=C(/Cl)c2ccccc2)c2ccccc2)cc1` [ENCLOMIPHENE], for which the “ABSOLUTE MONOCYTE” value (po, 3 mg/kg, 72 h, tissue Blood, route oral GAVAGE, dose level Low, time 3 day, vehicle .5 % CMC) stood at 162 CELLS/uL. For the setting “po, 250 mg/kg, 120 h, tissue Blood, route oral GAVAGE, dose level M1, time 5 day, vehicle .5 % CMC”, this compound registered an HEMOGLOBIN of 16.2 G/DL. This compound also showed an LIPASE (po, 500 mg/kg, 72 h, tissue Plasma, route oral GAVAGE, dose level High, time 3 day, vehicle .5 % CMC) of 7.33 u/L.

With `COc1cccc2c1C(=O)c1c(O)c3c(c(O)c1C2=O)C[C@@](O)(C(=O)CO)C[C@@H]3O[C@H]1C[C@H](N)[C@@H](O)[C@H](C)O1` [EPIRUBICIN], the POTASSIUM (iv, […], 120 h, tissue Plasma, dose 0.27 mg/Kg, dose level Low, time 5 day, vehicle 100 % SALINE) is 6.89 MEQ/L.

Consider `C#Cc1cccc(Nc2ncnc3cc(OCCOC)c(OCCOC)cc23)c1` [ERLOTINIB], for which the ALBUMIN was determined as 3.8 G/DL under setting [1]; 3.8 G/DL under setting [2]; 3.23 G/DL (po, 58 mg/kg, 72 h, tissue Plasma, route oral GAVAGE, dose level Low, time 3 day, vehicle 100 % WATER); 3.37 G/DL (po, 58 mg/kg, 120 h, tissue Plasma, route oral GAVAGE, dose level Low, time 5 day, vehicle 100 % WATER).

`Cc1ccc(NC(=O)c2ccc(CN3CCN(C)CC3)cc2)cc1Nc1nccc(-c2cccnc2)n1` [IMATINIB]: the “ASPARTATE AMINOTRANSFERASE” value under setting [1] worked out at 83.17 u/L; the “ASPARTATE AMINOTRANSFERASE” value under setting [2] came to 80 u/L; the “ASPARTATE AMINOTRANSFERASE” value (po, 15 mg/kg, 72 h, tissue Plasma, route oral GAVAGE, dose level Low, time 3 day, vehicle 100 % WATER) is given as 89.67 u/L; the “ASPARTATE AMINOTRANSFERASE” value (po, 15 mg/kg, 120 h, tissue Plasma, route oral GAVAGE, dose level Low, time 5 day, vehicle 100 % WATER) is 89.67 u/L; the “ASPARTATE AMINOTRANSFERASE” value (po, 150 mg/kg, 72 h, tissue Plasma, route oral GAVAGE, dose level High, time 3 day, vehicle 100 % WATER) stood at 113 u/L; the “ASPARTATE AMINOTRANSFERASE” value (po, 150 mg/kg, 120 h, tissue Plasma, route oral GAVAGE, dose level High, time 5 day, vehicle 100 % WATER) is on record as 119 u/L.

For the compound `CN1CCN2c3ccccc3Cc3ccccc3C2C1` (stereo not given) [MIANSERIN], the “ERYTHROCYTE COUNT” value (po, 10 mg/kg, 72 h, tissue Blood, route oral GAVAGE, dose level Low, time 3 day, […]) is 5.59 x10E6/uL.

For the compound `CCOC(=O)C1=C(C)NC(C)=C(C(=O)OC)C1c1cccc([N+](=O)[O-])c1` (stereo not given) [NITRENDIPINE], the ALBUMIN by setting is: (po, 0 mg/kg, 72 h, tissue Plasma, route oral GAVAGE, dose level Control, time 3 day, […]) 3.97 G/DL; (po, 0 mg/kg, 120 h, tissue Plasma, route oral GAVAGE, dose level Control, time 5 day, […]) 4.12 G/DL; (po, 10 mg/kg, 72 h, tissue Plasma, route oral GAVAGE, dose level Low, time 3 day, […]) 3.87 G/DL; (po, 10 mg/kg, 120 h, tissue Plasma, route oral GAVAGE, dose level Low, time 5 day, […]) 4.27 G/DL; (po, 1100 mg/kg, 72 h, tissue Plasma, route oral GAVAGE, dose level High, time 3 day, […]) 3.57 G/DL; (po, 1100 mg/kg, 120 h, tissue Plasma, route oral GAVAGE, dose level High, time 5 day, […]) 3.6 G/DL. Under “po, 1100 mg/kg, 72 h, tissue Blood, route oral GAVAGE, dose level High, time 3 day, […]”, the “MEAN CORPUSCULAR HEMOGLOBIN CONCENTRATION” value is reported as 38.67 G/DL.

Turning to `O=C1NC(=O)C(c2ccccc2)(c2ccccc2)N1` [PHENYTOIN], the ALBUMIN is, setting by setting: under setting [1], 3.78 G/DL; under setting [2], 4.33 G/DL; (po, 46 mg/kg, 72 h, tissue Plasma, route oral GAVAGE, dose level Low, time 3 day, vehicle 100 % WATER) 3.93 G/DL; (po, 46 mg/kg, 120 h, tissue Plasma, route oral GAVAGE, dose level Low, time 5 day, vehicle 100 % WATER) 4.3 G/DL.

On to `COc1ccc(C(CN(C)C)C2(O)CCCCC2)cc1` (stereo not given) [VENLAFAXINE], for which the ALBUMIN under setting [1] is reported as 4.05 G/DL; the ALBUMIN under setting [2] came to 4.38 G/DL; the ALBUMIN (po, 22 mg/kg, 72 h, tissue Plasma, route oral GAVAGE, dose level Low, time 3 day, vehicle 100 % WATER) is 4.47 G/DL; the ALBUMIN (po, 22 mg/kg, 120 h, tissue Plasma, route oral GAVAGE, dose level Low, time 5 day, vehicle 100 % WATER) was 4.57 G/DL; the ALBUMIN (po, 320 mg/kg, 72 h, tissue Plasma, route oral GAVAGE, dose level High, time 3 day, vehicle 100 % WATER) is recorded as 4.17 G/DL; the ALBUMIN (po, 320 mg/kg, 120 h, tissue Plasma, route oral GAVAGE, dose level High, time 5 day, vehicle 100 % WATER) is 4.17 G/DL.

COBALT(II) ACETYLACETONATE came in with an NEUTROPHIL (sc, 0 mg/kg, 72 h, tissue Blood, route subcutaneous, dose level Control, time 3 day, […]) of 16.5%. The compound also returned a CHLORIDE (sc, 0 mg/kg, 120 h, tissue Plasma, route subcutaneous, dose level Control, time 5 day, […]) of 105.17 MEQ/L.

Compound Diet_Restriction gave an HEMATOCRIT (0 mg/kg, […], tissue Blood, route none, dose level Control, time 14 day, vehicle 100 % UNTREATED) of 37.5%. For the same compound, the LIPASE runs as follows: (50 mg/kg, […], tissue Plasma, route none, dose level Low, time 14 day, vehicle 100 % UNTREATED) 9.33 u/L; (60 mg/kg, 120 h, tissue Plasma, route none, dose level M1, time 5 day, vehicle 100 % UNTREATED) 9.33 u/L; (75 mg/kg, 120 h, tissue Plasma, route none, dose level High, time 5 day, vehicle 100 % UNTREATED) 9.33 u/L.

On to GOLD SODIUM THIOMALATE, for which, under setting [4], the ALBUMIN is recorded as 4.05 G/DL and the “URIC ACID” value was determined as 1.57 mg/dL. In addition, the CHLORIDE under setting [5] was 105.4 MEQ/L.

In turn, INSULIN HUMAN had an LIPASE (iv, 0 mg/kg, 72 h, tissue Plasma, dose level Control, time 3 day, vehicle 100 % SALINE) of 9.33 u/L. For the same compound, the HEMOGLOBIN (iv, 0 mg/kg, 120 h, tissue Blood, dose level Control, time 5 day, vehicle 100 % SALINE) is reported as 13.42 G/DL. For the setting “iv, […], 72 h, tissue Plasma, dose 0.56 mg/Kg, dose level High, time 3 day, vehicle 100 % SALINE”, the PHOSPHORUS is on record as 10.23 mg/dL.

Turning to LEAD (II) ACETATE, under setting [4], the ALBUMIN stood at 4.05 G/DL and the “URIC ACID” value is 1.57 mg/dL. Besides, under setting [5], the CHLORIDE is recorded as 105.4 MEQ/L. In addition, where the note is “po, 600 mg/kg, 72 h, tissue Blood, route oral GAVAGE, dose level High, time 3 day, vehicle 100 % SALINE”, the “MEAN CORPUSCULAR HEMOGLOBIN CONCENTRATION” value worked out at 39.43 G/DL.

MANGANESE CHLORIDE ANHYDROUS: where the note is “po, 70 mg/kg, 72 h, tissue Blood, route oral GAVAGE, dose level Low, time 3 day, vehicle 100 % WATER”, the NEUTROPHIL worked out at 9.33%. For the same compound, the LIPASE (po, 70 mg/kg, 120 h, tissue Plasma, route oral GAVAGE, dose level Low, time 5 day, vehicle 100 % WATER) is 7.33 u/L.

Take SODIUM ORTHOVANAD: the CHLORIDE by setting is: (po, 83 mg/kg, 120 h, tissue Plasma, route oral GAVAGE, dose level High, time 5 day, vehicle .5 % CMC) 105 MEQ/L; (po, […], 120 h, tissue Plasma, route oral GAVAGE, dose 8.3 mg/Kg, dose level Low, time 5 day, vehicle .5 % CMC) 104.67 MEQ/L. The HEMOGLOBIN (po, […], 120 h, tissue Blood, route oral GAVAGE, dose 8.3 mg/Kg, dose level Low, time 5 day, vehicle .5 % CMC) was determined as 13.4 G/DL.

As to TRANSPLATIN, the CHLORIDE under setting [5] was found to be 105.4 MEQ/L.
